Calls of active or inactive are those of the source. No cut-off for these calls is given here.
Experiments:
[1] = target: T1, Serine/threonine-protein kinase LATS (Homo sapiens) (UniProt Q9NRM7+O95835); assay: Inhibition of LATS in human corneal endothelium cells assessed as induction of cell expansion by measuring cell density at 10 uM by Sytox orange dye based epifluorescence microscopy
[2] = target: T1, Serine/threonine-protein kinase LATS (Homo sapiens); assay: Inhibition of LATS in human limbal epithelial cells assessed as induction of limbal stem cell expansion by measuring expansion factor ratio at 10 uM measured after 2 weeks by p63alpha expression detection based immunohistochemistry relative to control; design: scale not given: the % may be the effect or the level left
[3] = target: T1, Serine/threonine-protein kinase LATS (Homo sapiens); assay: Inhibition of LATS in human limbal epithelial cells assessed as induction of cell differentiation into corneal epithelial cells by measuring keratin-12 expression at 10 uM incubated for 8 to 10 days followed by medium change to DMEM medium without serum and compound for further incubation for 4 to 8 days by confocal microscopy; format: cell-based

Protein sequences, listed by entry. Tags and fused reporters are not part of them. Lines headed by an entry give the natural chain unless they say otherwise; changes in a name come on top.
UniProt Q9NRM7: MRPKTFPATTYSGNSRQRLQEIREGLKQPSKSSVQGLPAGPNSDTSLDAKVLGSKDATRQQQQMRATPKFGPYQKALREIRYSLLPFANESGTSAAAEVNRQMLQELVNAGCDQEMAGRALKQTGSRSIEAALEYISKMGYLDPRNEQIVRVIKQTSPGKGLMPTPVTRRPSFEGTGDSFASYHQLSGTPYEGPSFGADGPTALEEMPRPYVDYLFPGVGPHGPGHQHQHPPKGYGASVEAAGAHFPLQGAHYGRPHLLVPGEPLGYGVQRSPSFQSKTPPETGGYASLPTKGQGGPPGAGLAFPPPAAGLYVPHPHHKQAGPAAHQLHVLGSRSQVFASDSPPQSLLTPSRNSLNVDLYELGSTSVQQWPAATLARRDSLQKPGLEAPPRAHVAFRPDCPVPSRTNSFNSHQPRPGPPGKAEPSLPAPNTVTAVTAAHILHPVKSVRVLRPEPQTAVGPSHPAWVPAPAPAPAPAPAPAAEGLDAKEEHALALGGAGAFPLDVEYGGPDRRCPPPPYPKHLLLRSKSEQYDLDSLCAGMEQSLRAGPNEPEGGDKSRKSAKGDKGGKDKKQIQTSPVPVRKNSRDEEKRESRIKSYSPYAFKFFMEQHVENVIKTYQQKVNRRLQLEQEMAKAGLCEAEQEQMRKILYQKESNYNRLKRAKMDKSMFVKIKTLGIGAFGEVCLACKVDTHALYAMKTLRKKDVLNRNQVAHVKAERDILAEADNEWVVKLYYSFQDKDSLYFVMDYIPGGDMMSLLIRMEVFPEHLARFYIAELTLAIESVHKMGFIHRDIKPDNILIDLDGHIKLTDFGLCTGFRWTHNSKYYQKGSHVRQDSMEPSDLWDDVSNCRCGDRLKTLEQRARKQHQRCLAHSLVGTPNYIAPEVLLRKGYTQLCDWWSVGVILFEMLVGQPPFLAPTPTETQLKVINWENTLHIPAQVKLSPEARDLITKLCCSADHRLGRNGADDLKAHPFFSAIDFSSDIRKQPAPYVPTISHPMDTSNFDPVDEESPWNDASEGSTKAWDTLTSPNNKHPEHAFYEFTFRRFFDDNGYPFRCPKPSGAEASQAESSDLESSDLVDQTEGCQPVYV
UniProt O95835: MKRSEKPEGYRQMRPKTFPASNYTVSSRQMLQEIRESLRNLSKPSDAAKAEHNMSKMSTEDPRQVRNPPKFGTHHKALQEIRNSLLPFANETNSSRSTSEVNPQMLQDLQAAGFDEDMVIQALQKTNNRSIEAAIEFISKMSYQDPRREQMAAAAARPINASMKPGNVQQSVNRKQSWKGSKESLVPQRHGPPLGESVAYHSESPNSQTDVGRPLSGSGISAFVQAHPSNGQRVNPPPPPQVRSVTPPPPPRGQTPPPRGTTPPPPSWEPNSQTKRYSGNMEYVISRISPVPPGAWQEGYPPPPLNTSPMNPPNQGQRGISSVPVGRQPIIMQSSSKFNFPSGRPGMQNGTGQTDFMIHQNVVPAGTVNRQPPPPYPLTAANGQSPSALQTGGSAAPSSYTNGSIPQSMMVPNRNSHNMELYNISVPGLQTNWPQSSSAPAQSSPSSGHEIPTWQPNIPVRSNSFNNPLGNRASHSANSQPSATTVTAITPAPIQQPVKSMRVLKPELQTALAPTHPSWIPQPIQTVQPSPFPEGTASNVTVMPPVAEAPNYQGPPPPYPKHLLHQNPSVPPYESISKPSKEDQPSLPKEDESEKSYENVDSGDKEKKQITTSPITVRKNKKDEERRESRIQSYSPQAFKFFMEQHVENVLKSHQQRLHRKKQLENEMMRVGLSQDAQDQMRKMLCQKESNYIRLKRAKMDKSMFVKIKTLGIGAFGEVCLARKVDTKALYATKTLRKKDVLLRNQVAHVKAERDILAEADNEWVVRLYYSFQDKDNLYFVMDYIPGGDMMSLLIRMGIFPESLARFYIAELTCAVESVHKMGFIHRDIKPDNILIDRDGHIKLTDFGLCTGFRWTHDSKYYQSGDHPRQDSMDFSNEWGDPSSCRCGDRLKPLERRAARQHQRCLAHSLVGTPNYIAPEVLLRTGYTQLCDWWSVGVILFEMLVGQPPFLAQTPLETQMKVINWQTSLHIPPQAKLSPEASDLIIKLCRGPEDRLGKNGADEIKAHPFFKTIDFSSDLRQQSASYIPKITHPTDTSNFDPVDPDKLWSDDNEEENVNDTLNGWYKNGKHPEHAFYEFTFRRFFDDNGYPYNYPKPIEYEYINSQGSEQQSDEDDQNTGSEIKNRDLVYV

Row | Compound | Activity [1] | Activity [2] | inhibition [3]
1 | CC(C)(COCCO)Nc1nc(-c2ccncc2)nc2cnccc12 | 1120 /mm2 | 57 to 97% | 
2 | CC(C)(O)COCC(C)(C)Nc1nc(-c2ccncc2)nc2cnccc12 | 4230 /mm2 | 57 to 97% | Active

— ChEMBL document CHEMBL4420070, “6-6 Fused Bicyclic Heteroaryl Compounds and their Use as LATS Inhibitors” (2018)
